# Measurements: publication PMC4281354, “The opioid receptor pharmacology of GSK1521498 compared to other ligands with differential effects on compulsive reward-related behaviours” (Psychopharmacology, 2014)
# By UniProt entry, the sequences of proteins in these tests, tags left out. Where a name states a change or a piece, a line headed by the entry shows the natural chain unless it says otherwise.
# UniProt P35372: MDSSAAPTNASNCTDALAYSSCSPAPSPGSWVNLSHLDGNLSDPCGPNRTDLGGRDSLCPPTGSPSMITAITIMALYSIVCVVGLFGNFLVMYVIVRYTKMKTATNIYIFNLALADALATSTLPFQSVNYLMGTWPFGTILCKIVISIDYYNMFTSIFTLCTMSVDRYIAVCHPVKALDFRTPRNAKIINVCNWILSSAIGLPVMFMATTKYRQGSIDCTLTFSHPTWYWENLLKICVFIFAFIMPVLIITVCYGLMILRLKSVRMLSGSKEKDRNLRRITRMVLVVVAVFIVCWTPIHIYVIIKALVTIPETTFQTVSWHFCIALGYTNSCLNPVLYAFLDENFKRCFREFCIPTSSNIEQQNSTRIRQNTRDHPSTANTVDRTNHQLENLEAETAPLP
# UniProt P42866: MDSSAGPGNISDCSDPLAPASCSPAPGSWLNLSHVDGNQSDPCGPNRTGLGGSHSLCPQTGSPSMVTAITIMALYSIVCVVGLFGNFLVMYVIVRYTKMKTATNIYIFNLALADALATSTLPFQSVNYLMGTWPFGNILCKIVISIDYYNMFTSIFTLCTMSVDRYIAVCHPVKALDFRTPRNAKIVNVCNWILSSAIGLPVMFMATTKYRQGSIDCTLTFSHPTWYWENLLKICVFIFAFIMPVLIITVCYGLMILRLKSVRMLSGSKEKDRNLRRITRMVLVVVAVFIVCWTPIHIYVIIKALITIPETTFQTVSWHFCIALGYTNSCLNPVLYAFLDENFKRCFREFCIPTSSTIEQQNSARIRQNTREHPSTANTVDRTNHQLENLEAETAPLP
# Legend:
# MOPr = MOPr (Homo sapiens, UniProt P35372); test: [3H]naloxone competition displacement binding, MOPr-HEK293 membranes; conditions: membranes from MOPr-HEK cells; data not shown
# [1] = target: MOPr in mouse brain membranes (Mus musculus, UniProt P42866); test: Basal [35S]GTPγS binding, whole mouse brain membranes (naive or morphine-pretreated mice); type: biochemical
substance,measurement,setting,value
β-chlornaltrexamine dihydrochloride,displacement of specific 3H-naloxone binding,MOPr,displaced specific ^3H-naloxone binding
same,"inhibition of basal [35S]GTPγS binding, membranes from naïve or morphine-treated animals",[1]; 1 μM,did not observe any inhibition
same,effect on DAMGO stimulation of GTPγS binding,"[1]; mouse brain membranes, data not shown",prevented DAMGO stimulation
